Biological target: MRAS(1–178)–Avi, biotinylated, wild type (human) (UniProt O14807)
Assay: FRET; MRAS WT/RBD pair
Conditions: natural protein

IC50: 1.92 µM
Substance: full-length SHOC2 (residues 2–582), untagged (from UniProt Q9UQ13 2-582)

— PMC9452295
